Test results reported in patent US20260055088A1, “HETEROCYCLIC COMPOUND, METHOD FOR PREPARING SAME, AND PHARMACEUTICAL USE THEREOF” (Jiangsu Hengrui Pharmaceuticals Co., Ltd., priority 2022, published 2026).

Sequences of proteins named here, by UniProt entry; tags and fusion partners are left off.
UniProt Q9Y5Y9, whole entry: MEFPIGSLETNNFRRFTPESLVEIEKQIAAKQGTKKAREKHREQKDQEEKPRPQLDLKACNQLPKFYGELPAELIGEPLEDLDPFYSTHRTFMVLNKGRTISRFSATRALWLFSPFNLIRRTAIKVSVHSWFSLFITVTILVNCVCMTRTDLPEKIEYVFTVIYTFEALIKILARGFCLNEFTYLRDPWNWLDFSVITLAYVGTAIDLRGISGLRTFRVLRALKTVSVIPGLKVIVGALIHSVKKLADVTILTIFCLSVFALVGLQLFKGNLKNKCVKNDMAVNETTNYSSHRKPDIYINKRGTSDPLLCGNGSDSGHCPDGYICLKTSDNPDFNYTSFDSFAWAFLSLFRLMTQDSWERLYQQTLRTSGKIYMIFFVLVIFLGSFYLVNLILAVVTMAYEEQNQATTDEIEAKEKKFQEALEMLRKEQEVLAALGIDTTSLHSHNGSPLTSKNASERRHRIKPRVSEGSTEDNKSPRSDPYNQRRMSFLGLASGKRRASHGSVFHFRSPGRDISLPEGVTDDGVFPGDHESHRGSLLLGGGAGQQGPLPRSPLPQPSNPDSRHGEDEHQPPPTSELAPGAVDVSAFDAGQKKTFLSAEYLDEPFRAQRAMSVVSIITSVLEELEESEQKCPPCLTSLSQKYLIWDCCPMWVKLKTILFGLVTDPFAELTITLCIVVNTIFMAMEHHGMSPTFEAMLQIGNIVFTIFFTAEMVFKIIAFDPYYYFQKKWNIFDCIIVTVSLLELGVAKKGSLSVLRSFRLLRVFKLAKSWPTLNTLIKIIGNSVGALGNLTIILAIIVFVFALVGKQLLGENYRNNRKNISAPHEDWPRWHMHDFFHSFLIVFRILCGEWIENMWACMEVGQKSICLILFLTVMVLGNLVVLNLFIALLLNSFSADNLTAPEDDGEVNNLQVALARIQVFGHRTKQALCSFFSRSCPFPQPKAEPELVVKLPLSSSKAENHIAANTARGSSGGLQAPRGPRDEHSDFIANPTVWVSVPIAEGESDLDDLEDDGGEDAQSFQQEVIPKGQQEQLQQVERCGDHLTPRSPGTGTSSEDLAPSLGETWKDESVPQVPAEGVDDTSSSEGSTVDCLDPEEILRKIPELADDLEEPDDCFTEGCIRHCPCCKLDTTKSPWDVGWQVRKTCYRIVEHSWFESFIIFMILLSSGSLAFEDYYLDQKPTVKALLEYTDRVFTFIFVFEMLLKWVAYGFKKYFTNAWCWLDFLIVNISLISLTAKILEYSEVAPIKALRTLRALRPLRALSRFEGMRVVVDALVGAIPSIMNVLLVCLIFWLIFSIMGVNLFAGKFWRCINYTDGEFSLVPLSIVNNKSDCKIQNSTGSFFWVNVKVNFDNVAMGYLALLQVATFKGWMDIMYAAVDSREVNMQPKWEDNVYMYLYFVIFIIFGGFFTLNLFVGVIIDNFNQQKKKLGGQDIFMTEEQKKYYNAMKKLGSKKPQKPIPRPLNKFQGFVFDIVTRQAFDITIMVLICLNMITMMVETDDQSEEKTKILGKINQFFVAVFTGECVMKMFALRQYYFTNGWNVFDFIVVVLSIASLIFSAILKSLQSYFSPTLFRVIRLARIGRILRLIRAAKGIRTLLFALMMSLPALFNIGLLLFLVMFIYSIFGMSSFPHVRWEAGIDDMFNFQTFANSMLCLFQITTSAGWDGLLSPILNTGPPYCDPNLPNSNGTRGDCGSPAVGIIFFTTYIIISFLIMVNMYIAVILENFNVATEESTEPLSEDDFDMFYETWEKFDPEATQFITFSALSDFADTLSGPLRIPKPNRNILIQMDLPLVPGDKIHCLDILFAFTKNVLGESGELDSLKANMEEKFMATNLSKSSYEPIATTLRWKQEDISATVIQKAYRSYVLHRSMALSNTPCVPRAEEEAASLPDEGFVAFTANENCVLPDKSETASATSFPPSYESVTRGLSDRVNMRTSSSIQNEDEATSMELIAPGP

Target: Nav1.8 ion channel stably expressed on HEK293 cells (Homo sapiens (Human), UniProt Q9Y5Y9)
Experiment: Inhibitory activity against Nav1.8, manual patch clamp
Type: cell-based
Settings: read-out: IC50 for the inhibition of Nav1.8 channel activity, resting protocol (-80 mV to 10 mV), 1 μM TTX

With `COc1c([C@H]2[C@H](C(=O)Nc3ccnc(C(N)CO)c3)O[C@@](C)(C(F)(F)F)[C@H]2C)ccc(F)c1F` (single isomer, unassigned) [6-1 or 6-2 (synthesized from the compound with the longer re] the IC50 was 0.85 nM.

Compound `COc1c([C@H]2[C@H](C(=O)Nc3ccnc(C(N)CO)c3)O[C@@](C)(C(F)(F)F)[C@H]2C)ccc(F)c1F` (single isomer, unassigned) [6-1 or 6-2 (synthesized from the compound with the shorter r] has an IC50 of 2.23 nM.
